The record followed here is US20230181700A1 (priority 2021, published 2023).

The data set concerns synthetic MCA-based peptide substrate (Biovision ACE2 Activity Assay Kit, Cat. No. K897-100).

Consider “ACE2 recombinant control (Sigma, Cat. No. SAE0064)”, for which the ACE2 enzymatic activity is 1,860 pmol/min/µg.
